# Results taken from PMC4019635 (PLoS ONE, 2014).
# Target: T1, RDLbd (Drosophila melanogaster, UniProt P25123)
# T1 sequence (P25123 45-606): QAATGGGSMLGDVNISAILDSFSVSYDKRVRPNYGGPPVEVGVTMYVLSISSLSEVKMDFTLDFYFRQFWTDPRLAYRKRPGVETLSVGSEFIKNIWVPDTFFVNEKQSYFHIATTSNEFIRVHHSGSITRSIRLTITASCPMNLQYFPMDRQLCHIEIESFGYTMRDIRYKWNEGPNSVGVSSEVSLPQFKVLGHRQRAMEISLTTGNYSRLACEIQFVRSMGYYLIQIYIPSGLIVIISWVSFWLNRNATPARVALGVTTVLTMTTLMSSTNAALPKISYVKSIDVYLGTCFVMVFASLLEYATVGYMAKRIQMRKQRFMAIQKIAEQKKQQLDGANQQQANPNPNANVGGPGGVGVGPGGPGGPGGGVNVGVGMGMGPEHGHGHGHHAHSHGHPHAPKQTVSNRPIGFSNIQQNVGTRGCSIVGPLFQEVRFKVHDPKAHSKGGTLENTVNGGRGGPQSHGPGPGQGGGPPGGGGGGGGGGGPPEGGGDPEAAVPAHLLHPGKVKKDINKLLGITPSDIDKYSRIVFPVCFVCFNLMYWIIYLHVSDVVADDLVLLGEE
# Format: cell-based
smiles,measurement,value
"CC[C@H](C)[C@H]1O[C@]2(CC[C@@H]1C)C[C@@H]1C[C@@H](C/C=C(\C)[C@@H](O[C@H]3C[C@H](OC)[C@@H](O[C@H]4C[C@H](OC)[C@@H](O)[C@H](C)O4)[C@H](C)O3)[C@@H](C)/C=C/C=C3\CO[C@@H]4[C@H](O)C(C)=C[C@@H](C(=O)O1)[C@]34O)O2 [IVM, ivermectin]",response when applied alone,no response
